{"source": "patent US11976279B2", "about": "“Methods and compositions for managing vascular conditions using miR-483 mimics and HIF1alpha pathway inhibitors” (dated 2024)", "key": {"porcine AV leaflets": {"system": "porcine AV leaflets", "assay": "Calcification of porcine AV leaflets cultured in osteogenic media, static (Alizarin Red, Arsenazo)", "conditions": "20 μM every three days, osteogenic media"}, "porcine AVs": {"system": "porcine AVs", "assay": "Calcification of porcine AVs sheared in fibrosa or ventricularis flow in osteogenic media (Arsenazo)", "conditions": "20 μM, 7 days"}, "HIF1alpha": {"system": "HIF1alpha", "assay": "HIF1alpha expression in porcine AVs in osteogenic media", "conditions": "20 μM every three days"}}, "data": [{"compound": "N[C@@H](Cc1ccc([N+]([O-])(CCCl)CCCl)cc1)C(=O)O", "values": [{"measurement": "AV calcification (Alizarin red, Arsenazo)", "setting": "porcine AV leaflets", "value": "dramatic inhibition"}, {"measurement": "total calcium levels in PAVs compared to vehicle control (Arsenazo assay)", "setting": "porcine AVs", "value": "significantly decreased"}, {"measurement": "HIF1alpha expression", "setting": "HIF1alpha", "value": "significantly decreased"}]}]}
